The target of assay [1] is T1, dog mutant HSD17B13 (G177E/V178G/T205A/I293V) (Canis lupus familiaris, UniProt A0A8C0PP93, G177E/I293V/T205A/V178G).
T1 construct: HSD17B13 (AA1-300, XP_038300006.1); made in house; host or cells: Sf9 (baculovirus)
T1 sequence (A0A8C0PP93 1-300 G177E/V178G/T205A/I293V): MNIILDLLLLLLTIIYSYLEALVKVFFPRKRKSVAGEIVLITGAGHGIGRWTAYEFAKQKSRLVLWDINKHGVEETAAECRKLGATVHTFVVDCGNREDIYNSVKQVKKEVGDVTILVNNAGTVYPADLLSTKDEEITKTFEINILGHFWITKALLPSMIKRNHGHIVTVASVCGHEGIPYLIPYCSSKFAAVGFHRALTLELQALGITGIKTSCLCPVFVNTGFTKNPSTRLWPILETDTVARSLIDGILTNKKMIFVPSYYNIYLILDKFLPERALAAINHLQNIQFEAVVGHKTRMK
Kind of assay: Thermal shift assay (static light scattering, Tagg), dog mutant HSD17B13. The conditions noted are these: Fig. 6d; 500 μM NAD+. The format is binding. The source says: (§1) To understand ligand binding, we tested several approaches such as surface plasmon resonance and isothermal calorimetry. […] We next turned to thermal shift assays (TSA) for comparing ligand binding affinities. TSA measures the changes in the thermal denaturation temperature of a protein under different conditions such as the presence compound, changes in buffer conditions, or sequence mutations. There are various readouts including intrinsic fluorescence or light scattering signals. We chose the static light scattering methods to detect the temperatures at which our proteins start to aggregate (Tagg), which are more suitable for membrane proteins that require detergent micelles for stability.
(§2) TSA studies were run on the UNit instrument (Unchained Labs, CA, USA). […] The data was processed using the UNcle software (Unchained Labs, CA, USA), and temperatures at which the protein started aggregation were recorded as Tagg.

The chains behind the UniProt entries cited, without tags or fusion partners. Where a name states a change or a piece, a line headed by the entry shows the natural chain unless it says otherwise. Residues count along the entry.
UniProt A0A8C0PP93, 1-300: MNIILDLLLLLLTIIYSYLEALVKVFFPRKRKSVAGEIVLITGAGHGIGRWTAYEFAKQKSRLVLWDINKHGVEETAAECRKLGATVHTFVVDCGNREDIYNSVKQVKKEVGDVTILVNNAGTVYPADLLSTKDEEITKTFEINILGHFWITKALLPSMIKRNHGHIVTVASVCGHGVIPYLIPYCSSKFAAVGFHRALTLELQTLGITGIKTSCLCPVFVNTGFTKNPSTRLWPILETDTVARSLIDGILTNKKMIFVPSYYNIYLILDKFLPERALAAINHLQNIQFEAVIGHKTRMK

The target of assay [2] is T2, dog WT HSD17B13 (Canis lupus familiaris, UniProt A0A8C0PP93).
T2 construct: HSD17B13 (AA1-300, XP_038300006.1); made in house; host or cells: Sf9 (baculovirus)
T2 sequence (A0A8C0PP93 1-300): T1 sequence (A0A8C0PP93 1-300 G177E/V178G/T205A/I293V) with E177G, G178V, A205T, V293I
Nature of the assay: Thermal shift assay (static light scattering, Tagg), dog WT HSD17B13. The format is binding. The conditions noted are these: Fig. 6d; 500 μM NAD+.
Description: as §1, §2

The results in this text go back to PMC10449848, “Structural basis of lipid-droplet localization of 17-beta-hydroxysteroid dehydrogenase 13” (Nature Communications, 2023).

Numbering of substitutions follows the chain as printed.

Consider `Cc1ccc(S(=O)(=O)c2cc(C)cc(S(=O)(=O)Nc3ccc(C(=O)O)cc3)c2C)cc1` [Compound 2], for which the “binding in TSA” value in assay [1] was “did not bind compound 2 significantly”. Moreover, the “stabilization in TSA” value in assay [2] is “Neither 1 nor 2 stabilized dog WT HSD17B13 significantly”.
